Each compound was assayed on influx of neutrophils to the lung in LPS-challenged rats (assay: Rat LPS neutrophilia model). Conditions: intratracheal, LPS aerosol 100 ug/ml, in at least one of the range of conditions tested, significance p<0.05.
Format: in vivo
Experimental: Rat LPS Neutrophilia Model
The effect of compounds on the influx of neutrophils to the lung in LPS-challenged rats is evaluated as follows. The test compound is suspended in one of the following solutions: 0.5% tween 80/PBS, 0.5% tween 80/saline, 10% EtOH/saline (with pH adjusted to 2.0, or 8.0 with HCl, or unadjusted), Saline (pH 2.0, 6.5 or 8.0, 0.5% Tragacanth, 1% DMSO/20% Encapsin/Saline, or acidified 5% Tragacanth. The suspension process may be aided by the use of a glass homogenizer. For intratracheal administration, the animals are anesthetized with inhaled isoflurane and placed in a supine position, the trachea is intubated with a steel gavage needle (1.5 inch, 22 gauge, small ball) or a Penn-Century Microsprayer Aerosolizer (model IA-1B) and 200 ul of dosing solution is delivered. The animals are visually monitored during the recovery process, which typically occurs within two minutes. It is noted that the test compounds may be alternatively administered via the microsprayer in a dry powder blend with a suitable excipient, such as lactose.
Rats treated with compound or vehicle (15 min-24 hours pretreatment) are exposed to an LPS aerosol (100 ug/ml) for 15 min. Four hours later the rats are euthanized with pentobarbital (100 mg/kg, i.p.) and the airways are lavaged with 5 washes of 5 ml of phosphate buffered saline. The harvested cells are stained (Diffquick) and counted to determine total and differential cell data. […] Inhibition of neutrophil levels relative to no compound controls is calculated based on the differential counts.
The data is obtained as % inhibition using a particular concentration and pretreat time.

Row | Structure (SMILES) | inhibition of neutrophilia (neutrophil levels in airway lavage relative to no compound controls)
1 | CCCNC(=O)c1ccc(C)c(-c2nc(NCCCN(CC)CC)nc3c2ccc(=O)n3-c2c(F)cccc2F)c1 [Example 122, 3-[2-{[3-(diethylamino)propyl]amino}-8-(2,6-difluorophenyl)-7-oxo-7,8-dihydropyrido[2,3-d]pyrimidin-4-yl]-4-methyl-N-propylbenzamide] | statistically nonsignificant inhibition of neutrophilia
2 | CCN(CC)CCCNc1nc(-c2cc(C(=O)NCC(C)C)ccc2C)c2ccc(=O)n(-c3c(F)cccc3F)c2n1 [Example 124, 3-[2-{[3-(diethylamino)propyl]amino}-8-(2,6-difluorophenyl)-7-oxo-7,8-dihydropyrido[2,3-d]pyrimidin-4-yl]-4-methyl-N-(2-methylpropyl)benzamide] | statistically significant inhibition of neutrophilia
3 | CCN(CC)CCCNc1nc(-c2cc(C(=O)NC3CCCC3)ccc2C)c2ccc(=O)n(-c3c(F)cccc3F)c2n1 [Example 125, N-cyclopentyl-3-[2-{[3-(diethylamino)propyl]amino}-8-(2,6-difluorophenyl)-7-oxo-7,8-dihydropyrido[2,3-d]pyrimidin-4-yl]-4-methylbenzamide] | statistically nonsignificant inhibition of neutrophilia
4 | CCN(CC)CCCNc1nc(-c2cc(C(=O)NCC(F)(F)F)ccc2C)c2ccc(=O)n(-c3c(F)cccc3F)c2n1 [Example 128, 3-[2-{[3-(diethylamino)propyl]amino}-8-(2,6-difluorophenyl)-7-oxo-7,8-dihydropyrido[2,3-d]pyrimidin-4-yl]-4-methyl-N-(2,2,2-trifluoroethyl)benzamide] | inactive
5 | CCNC(=O)c1ccc(C)c(-c2nc(NCCCN(CC)CC)nc3c2ccc(=O)n3-c2c(F)cccc2F)c1 [Example 129, 3-[2-{[3-(diethylamino)propyl]amino}-8-(2,6-difluorophenyl)-7-oxo-7,8-dihydropyrido[2,3-d]pyrimidin-4-yl]-N-ethyl-4-methylbenzamide] | statistically nonsignificant inhibition of neutrophilia
